## Cyclic peptide permeability, from CycPeptMPDB

Source: CycPeptMPDB (Li et al. 2023), which took these values from Townsend et al. 2020, doi:10.26434/chemrxiv.13335941.v1.

PAMPA is the parallel artificial membrane permeability assay, which has no cells and reads passive diffusion. Values are log10 P with P in cm/s, so -5 is more permeable than -7.

CC(C)C[C@@H]1NC(=O)[C@@H](CC(C)C)N(C)C(=O)[C@H](C)N(C)C(=O)[C@H](Cc2ccccc2)NC(=O)[C@@H](CC(C)C)NC(=O)[C@H]2CCCN2C1=O has PAMPA -5.51 (log10 cm/s).
CC(C)C[C@H]1NC(=O)[C@@H]2CCCN2C(=O)[C@@H](CC(C)C)NC(=O)CN(Cc2ccccc2)C(=O)[C@H](C)N(C)C(=O)[C@H](Cc2ccccc2)NC1=O has PAMPA -5.00 (log10 cm/s).
CC(C)C[C@@H]1C(=O)N[C@@H](Cc2ccccc2)C(=O)N2CCC[C@H]2C(=O)N[C@H](C)C(=O)N[C@H](CC(C)C)C(=O)N(Cc2ccccc2)CC(=O)N2CCC[C@H]2C(=O)N1C has PAMPA -6.60 (log10 cm/s).
CC(C)C[C@@H]1C(=O)N[C@@H](Cc2ccccc2)CC(=O)N2CCC[C@H]2C(=O)N(C)[C@H](CC(C)C)C(=O)N[C@@H](Cc2ccccc2)C(=O)N(C)[C@@H](C)C(=O)N1C has PAMPA -5.38 (log10 cm/s).
CCCN1CC(=O)N(C)[C@@H](CC(C)C)C(=O)N[C@@H](CC(C)C)C(=O)N2CCC[C@H]2C(=O)N(C)[C@@H](CC(C)C)C(=O)N[C@@H](Cc2ccccc2)C1=O has PAMPA -4.82 (log10 cm/s).
CC(C)C[C@H]1NC(=O)[C@@H](C)N(C)C(=O)[C@H](Cc2ccccc2)NC(=O)CN(Cc2ccccc2)C(=O)[C@@H]2CCCN2C(=O)[C@@H](CC(C)C)NC1=O has PAMPA -5.77 (log10 cm/s).
CC(C)C[C@@H]1NC(=O)C[C@H](Cc2ccccc2)NC(=O)[C@@H]2CCCN2C(=O)[C@H](Cc2ccccc2)NC(=O)[C@@H](CC(C)C)N(C)C(=O)[C@H]2CCCN2C(=O)[C@H](CC(C)C)N(C)C1=O has PAMPA -5.42 (log10 cm/s).
CC(C)C[C@H]1NC(=O)[C@H](C)NC(=O)[C@H]2CCCN2C(=O)[C@H](Cc2ccccc2)NC(=O)CN(Cc2ccccc2)C(=O)[C@@H]2CCCN2C(=O)CN(Cc2ccccc2)C1=O has PAMPA -5.66 (log10 cm/s).
CC(C)C[C@@H]1NC(=O)[C@H](C)N(C)C(=O)[C@H](Cc2ccccc2)NC(=O)[C@@H](CC(C)C)NC(=O)[C@H]2CCCN2C(=O)C[C@H](Cc2ccccc2)NC1=O has PAMPA -6.12 (log10 cm/s).
CC(C)C[C@@H]1NC(=O)[C@@H]2CCCN2C(=O)[C@H](CC(C)C)N(C)C(=O)[C@@H](CC(C)C)NC(=O)[C@H](C)N(C)C(=O)[C@H](Cc2ccccc2)NC1=O has PAMPA -5.78 (log10 cm/s).
CC(C)C[C@@H]1C(=O)N[C@@H](Cc2ccccc2)C(=O)N2CCC[C@@H]2C(=O)N(C)[C@H](C)C(=O)N[C@H](CC(C)C)C(=O)N(C)[C@H](CC(C)C)C(=O)N2CCC[C@@H]2C(=O)N1C has PAMPA -5.78 (log10 cm/s).
CC(C)C[C@@H]1NC(=O)[C@@H](CC(C)C)NC(=O)[C@@H](C)N(C)C(=O)[C@@H]2CCCN2C(=O)[C@H](Cc2ccccc2)NC(=O)[C@@H](CC(C)C)N(C)C(=O)[C@H]2CCCN2C1=O has PAMPA -5.41 (log10 cm/s).
CC(C)C[C@@H]1NC(=O)[C@H]2CCCN2C(=O)[C@@H](CC(C)C)N(C)C(=O)[C@H](CC(C)C)N(C)C(=O)[C@@H](C)N(C)C(=O)[C@@H]2CCCN2C(=O)[C@H](Cc2ccccc2)NC1=O has PAMPA -6.67 (log10 cm/s).
CC(C)C[C@@H]1NC(=O)[C@@H]2CCCN2C(=O)C[C@H](Cc2ccccc2)NC(=O)[C@H](CC(C)C)N(C)C(=O)[C@@H](C)N(C)C(=O)[C@@H]2CCCN2C(=O)[C@H](Cc2ccccc2)NC1=O has PAMPA -6.40 (log10 cm/s).
CC(C)C[C@@H]1C(=O)N2CCC[C@@H]2C(=O)N(C)[C@@H](CC(C)C)C(=O)N[C@@H](Cc2ccccc2)C(=O)N2CCC[C@@H]2C(=O)N[C@H](C)C(=O)N(C)[C@@H](CC(C)C)C(=O)N1C has PAMPA -5.74 (log10 cm/s).

The 2 highest values of PAMPA among the entries above:

{"smiles": "CCCN1CC(=O)N(C)[C@@H](CC(C)C)C(=O)N[C@@H](CC(C)C)C(=O)N2CCC[C@H]2C(=O)N(C)[C@@H](CC(C)C)C(=O)N[C@@H](Cc2ccccc2)C1=O", "PAMPA (log10 cm/s)": "-4.82"}
{"smiles": "CC(C)C[C@H]1NC(=O)[C@@H]2CCCN2C(=O)[C@@H](CC(C)C)NC(=O)CN(Cc2ccccc2)C(=O)[C@H](C)N(C)C(=O)[C@H](Cc2ccccc2)NC1=O", "PAMPA (log10 cm/s)": "-5.00"}

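The data file gives no further conditions (lipid, pH, time, direction or concentration), and values from different papers need not be comparable. The list need not hold all peptides of the study. Entries at the database's floor value (log10 P of -10) are not listed.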